Measured values reported in patent US11707471B2, “ENPP1 inhibitors and their use for the treatment of cancer” (The Board of Trustees of the Leland Stanford Junior …, priority 2017, dated 2023).

Test system: 4T1 tumor
Assay: 4T1 tumor model: ENPP1 inhibition with IR, cGAMP and anti-CTLA-4
Assay type: in vivo, mouse

Work on COc1cc2ncnc(N3CCC(CCP(=O)(O)O)CC3)c2cc1OC [Compound 1, dimethyl (2-(1-(6,7-dimethoxyquinazolin-4-yl)piperidin-4-yl)ethyl)phosphonic acid] yielded a cure rate (20 Gy IR then compound 1 in addition to cGAMP, intratumoral) of 10% and a cure rate (IR pretreatment with compound 1 (1 mM intratumoral) and anti-CTLA-4 (200 μg i.p.)) of 10%.
